Where a name gives a salt, the structure may show the parent alone.
System: 2% red blood cell's suspending liquid
Test: hemolytic testing outside the body (visual)
Type: cell-based, rabbit
Settings: high concentration 1.88 mg/ml

For `O=C(O)Cc1ccc(-c2ccccc2)cc1` [biphenyl acetic ammonia butantriol salt], the “blood absorbing reaction within 3 hours” value was “no blood absorbing reaction”.
